Results as given in ChEMBL document CHEMBL4428027, “3-Hydroxypyrimidine-2,4-diones as Selective Active Site Inhibitors of HIV Reverse Transcriptase-Associated RNase H: Design, Synthesis, and Biochemical Evaluations” (J Med Chem, 2016).

These compounds were tested against Human immunodeficiency virus type 1 reverse transcriptase (Human immunodeficiency virus 1) (UniProt Q72547) (assay: Inhibition of HIV1 polymerase activity of reverse transcriptase using poly(rA)-oligo(dT)16 and [3H]-TTP up to 25 uM incubated for 20 mins by liquid scintillation spectrometry).
Method in brief: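 Reaction mix: 10 µM [3H]-TTP, 40 nM poly(rA)-oligo(dT)16, 50 mM Tris-HCl pH 7.4 (37°C), 60 mM KCl, 5 mM MgCl2. Started with 10 nM RT; 20 min at 37°C. Quenched in ice-cold 10% TCA with 20 mM sodium pyrophosphate, then glass-fibre filtered and washed with TCA and ethanol. Label incorporation read by liquid scintillation.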
For `Cc1noc(C)c1-c1ccc(Nc2cc(=O)n(O)c(=O)n2C)cc1`, the inhibition was “inactive”.
In the case of `COc1ccccc1-c1ccc(Nc2cc(=O)n(O)c(=O)n2C)cc1`, the inhibition is reported as “inactive”.
In the case of `COc1ccc(-c2ccc(Nc3cc(=O)n(O)c(=O)n3C)cc2)cc1`, the inhibition is reported as “inactive”.
`COc1cccc(-c2ccc(Nc3cc(=O)n(O)c(=O)n3C)cc2)c1` was tested, and the inhibition was “inactive”.
In the case of `COc1ccccc1-c1cccc(Oc2cc(=O)n(O)c(=O)n2C)c1`, the inhibition is reported as “inactive”.
With `Cn1c(Oc2ccccc2-c2ccccc2O)cc(=O)n(O)c1=O` the inhibition was “inactive”.
With `Cn1c(Nc2ccc(-c3cccc(C#N)c3)cc2)cc(=O)n(O)c1=O` the inhibition was “inactive”.
In the case of `COc1cc(OC)cc(-c2cccc(Nc3cc(=O)n(O)c(=O)n3C)c2)c1`, the inhibition is reported as “inactive”.
With `COc1cccc(OC)c1-c1cccc(Nc2cc(=O)n(O)c(=O)n2C)c1` the inhibition was “inactive”.
With `Cn1c(Oc2cccc(-c3ccc(C(F)(F)F)cc3)c2)cc(=O)n(O)c1=O` the inhibition was “inactive”.
With `COc1ccc(-c2ccc(Oc3cc(=O)n(O)c(=O)n3C)cc2)cc1` the inhibition was “inactive”.
In the case of `COc1cccc(-c2cccc(Oc3cc(=O)n(O)c(=O)n3C)c2)c1`, the inhibition is reported as “inactive”.
For `Cn1c(Oc2cccc(-c3ccc(C#N)cc3)c2)cc(=O)n(O)c1=O`, the inhibition was “inactive”.
In the case of `Cn1c(Oc2ccc(-c3ccncc3)cc2)cc(=O)n(O)c1=O`, the inhibition is reported as “inactive”.
`Cn1c(Oc2ccc(-c3cccc(C#N)c3)cc2)cc(=O)n(O)c1=O` was tested, and the inhibition was “inactive”.
For `Cn1c(Oc2ccc(-c3ccc(O)cc3)cc2)cc(=O)n(O)c1=O`, the inhibition was “inactive”.
For `COc1ccc(-c2cccc(Oc3cc(=O)n(O)c(=O)n3C)c2)cc1`, the inhibition was “inactive”.
`Cn1c(Oc2ccc(-c3ccccc3)cc2)cc(=O)n(O)c1=O` was tested, and the inhibition was “inactive”.
With `Cc1noc(C)c1-c1ccccc1Nc1cc(=O)n(O)c(=O)n1C` the inhibition was “inactive”.
In the case of `Cn1c(Oc2cccc(-c3cccc(C#N)c3)c2)cc(=O)n(O)c1=O`, the inhibition is reported as “inactive”.
`Cn1c(Oc2ccccc2-c2ccc(C(F)(F)F)cc2)cc(=O)n(O)c1=O` was tested, and the inhibition was “inactive”.
For `Cn1c(Oc2ccc(-c3ccc(Cl)cc3)cc2)cc(=O)n(O)c1=O`, the inhibition was “inactive”.
In the case of `Cn1c(Nc2cccc(-c3ccccc3)c2)cc(=O)n(O)c1=O`, the inhibition is reported as “inactive”.
`COc1ccc(-c2ccc(Nc3cc(=O)n(O)c(=O)n3C)cc2)c(OC)c1` was tested, and the inhibition was “inactive”.
With `COc1cccc(-c2cccc(Nc3cc(=O)n(O)c(=O)n3C)c2)c1` the inhibition was “inactive”.
In the case of `Cn1c(Oc2ccc(-c3ccc(C#N)cc3)cc2)cc(=O)n(O)c1=O`, the inhibition is reported as “inactive”.
With `Cn1c(Nc2cccc(-c3cncnc3)c2)cc(=O)n(O)c1=O` the inhibition was “inactive”.
In the case of `COc1cccc(-c2ccccc2Oc2cc(=O)n(O)c(=O)n2C)c1`, the inhibition is reported as “inactive”.
`Cn1c(Oc2cccc(-c3ccccc3)c2)cc(=O)n(O)c1=O` was tested, and the inhibition was “inactive”.
In the case of `COc1ccc(-c2ccccc2Oc2cc(=O)n(O)c(=O)n2C)cc1`, the inhibition is reported as “inactive”.
With `Cn1c(Oc2cccc(-c3cccc(O)c3)c2)cc(=O)n(O)c1=O` the inhibition was “inactive”.
For `Cc1ccc(-c2ccc(Nc3cc(=O)n(O)c(=O)n3C)cc2)cc1`, the inhibition was “inactive”.
For `COc1ccccc1-c1ccc(Oc2cc(=O)n(O)c(=O)n2C)cc1`, the inhibition was “inactive”.
`Cn1c(Nc2ccc(-c3ccccc3)cc2)cc(=O)n(O)c1=O` was tested, and the inhibition was “inactive”.
`Cn1c(Nc2ccc(-c3ccc(C(F)(F)F)cc3)cc2)cc(=O)n(O)c1=O` was tested, and the inhibition was “inactive”.
For `Cn1c(Oc2ccc(-c3ccc(C(F)(F)F)cc3)cc2)cc(=O)n(O)c1=O`, the inhibition was “inactive”.
In the case of `COc1ccccc1-c1ccccc1Oc1cc(=O)n(O)c(=O)n1C`, the inhibition is reported as “inactive”.

What follows are compounds tested against Human immunodeficiency virus type 1 reverse transcriptase (Human immunodeficiency virus 1) (UniProt Q72547) (assay: Inhibition of re-constituted HIV1 reverse transcriptase RNase H domain fragment up to 25 uM).
Method in brief: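 Secondary check using a catalytically active, isolated HIV RNase H domain fragment (reconstituted) with duplex substrate HTS-1. […] Upper test concentration 25 µM.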
`Cn1c(Oc2cccc(-c3ccc(C(F)(F)F)cc3)c2)cc(=O)n(O)c1=O` was tested, and the inhibition was “inactive”.

Each compound was assayed against Human immunodeficiency virus type 1 reverse transcriptase (Human immunodeficiency virus 1) (UniProt Q72547) (assay: Inhibition of RNase H activity of full length recombinant HIV1 reverse transcriptase assessed as reduction in RNA 5'-end directed cleavage up to 25 uM using HTS3 substrate).
With `Cn1c(Oc2ccccc2-c2ccccc2O)cc(=O)n(O)c1=O` the inhibition was “inactive”.
`Cn1c(Oc2cccc(-c3ccc(C(F)(F)F)cc3)c2)cc(=O)n(O)c1=O` was tested, and the inhibition was “inactive”.
With `Cc1noc(C)c1-c1ccccc1Nc1cc(=O)n(O)c(=O)n1C` the inhibition was “inactive”.
In the case of `COc1cccc(-c2ccccc2Oc2cc(=O)n(O)c(=O)n2C)c1`, the inhibition is reported as “inactive”.
`Cn1c(Oc2ccc(-c3ccc(C(F)(F)F)cc3)cc2)cc(=O)n(O)c1=O` was tested, and the inhibition was “inactive”.
In the case of `COc1ccccc1-c1ccccc1Oc1cc(=O)n(O)c(=O)n1C`, the inhibition is reported as “inactive”.

The source made the active and inactive calls. The calls are words filed in the database; no cut-off is given here.
